The list shows a part of the results, in another mix than the full data. Activity calls are given as the source filed them. Cut-off read from the data, not from the text of the source: active = inhibition above about 40%.

Amino acid sequences for entries named in this document (tags omitted).
UniProt Q16548, whole entry: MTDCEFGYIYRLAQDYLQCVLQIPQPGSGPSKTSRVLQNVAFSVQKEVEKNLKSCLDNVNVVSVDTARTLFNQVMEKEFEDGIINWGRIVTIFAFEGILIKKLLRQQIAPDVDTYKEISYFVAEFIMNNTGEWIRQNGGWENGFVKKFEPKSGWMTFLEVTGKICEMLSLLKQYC

For this test, the target named is Bcl-2-related protein A1 (Homo sapiens) (UniProt Q16548). Briefly: Bfl-1/Bim complex disruptors – biochemical, multiplexed, bead-based flow cytometry, primary screen (AID 1008).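 Note: 0% = wells without compound plus tracer and 100% = blocker peptide.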 Conditions: Bim-Bfl-1 binding inhibition, at 10 µM, hits give high values.
With `CC(C)c1ccc(NC2CCN(C(=O)OC(C)(C)C)CC2)cc1`, the inhibition was inactive: -2%.

For the compound `CN(C)c1cccc(C(=O)NCC2(N3CCCCC3)CCCCC2)c1`, the inhibition was inactive: 6%. `COc1ccc(CN(CCCl)CCCl)cc1Cl`: the inhibition was inactive: -6%. With `O=C(NCC1(N2CCOCC2)CCCCC1)c1cc(=O)[nH]c2ccccc12`, the inhibition is inactive: -7%. `CN1CCN(CCOC(=O)C(O)(c2ccccc2)c2ccccc2)CC1`: the inhibition is inactive: -3%. On to `COc1ccc(NC2CCN(C(=O)OC(C)(C)C)CC2)cc1`, for which the inhibition is inactive: 1%.

In the case of `N#CC1(Nc2ccccc2)CCN(CCc2ccccc2)CC1`, the inhibition is inactive: -2%. With `O=C(NCC1(N2CCCCC2)CCCCC1)c1cccc([N+](=O)[O-])c1`, the inhibition is inactive: -1%. Take `COc1ccc(NC2CCN(CCc3ccccc3)CC2)c(OC)c1`: the inhibition was inactive: -15%. With `O=C(NCC1(N2CCOCC2)CCCCC1)c1cc2ccccc2o1` the figure was inactive: 12%. Regarding `O=C(OC1CN2CCC1CC2)C1c2ccccc2Oc2ccccc21` (stereo not given), the inhibition was inactive: -3%. Take `CCOC(=O)N1CCC(Nc2ccc(OC)cc2)CC1`: the inhibition was inactive: -4%.

For `COc1ccc(C(=O)NCC2(N3CCCCC3)CCCCC2)c(OC)c1OC`, the inhibition is inactive: -3%. As to `COc1cc(OC)cc(C(=O)NCC2(N3CCOCC3)CCCCC2)c1`, the inhibition was inactive: -3%. Consider `CCC(CO)(C(=O)OC1CN2CCC1CC2)c1ccccc1` (stereo not given), for which the inhibition is inactive: -9%. In the case of `CCOc1ncccc1C(=O)NCC1(N2CCOCC2)CCCCC1`, the inhibition is inactive: 0%. With `CC(C)(C)OC(=O)N1CCC(Nc2ccccc2)CC1` the figure was inactive: -1%. `CCN1CCC(Nc2cccc(F)c2)CC1`: the inhibition was inactive: -2%. With `CN(C)c1ccc(C(=O)NCC2(N3CCCCC3)CCCCC2)cc1` the figure was inactive: -1%; with `Fc1ccccc1NC1CCN(Cc2ccccc2)CC1`, inactive: 0%; with `c1ccc(CN2CCC(Nc3ccccc3)CC2)cc1`, inactive: -12%. Turning to `N#Cc1ccc(C(=O)NCC2(N3CCCCC3)CCCCC2)cc1`, the inhibition was inactive: -4%. Consider `N/C(=N\O)c1c(N)no[n+]1[O-]`, for which the inhibition was inactive: -3%. Then `O=C(OC1CN2CCC1CC2)C1c2ccccc2C=Cc2ccccc21` (stereo not given), with inactive: -3%. Regarding `COc1ccc(C(=O)NCC2(N3CCOCC3)CCCCC2)cc1OC`, the inhibition was inactive: -3%.

The values above are taken from PubChem BioAssay AID1008 (NMMLSC, 2008).
